Data from patent US20050276762A1, “Topical compositions containing 5'-adenosine-diphosphate ribose” (priority 2004, published 2005).
Some compounds may have been tested in ways that are not shown here.

Sequences of proteins named here, by UniProt entry; tags and fusion partners are left off.
UniProt P09874, whole entry: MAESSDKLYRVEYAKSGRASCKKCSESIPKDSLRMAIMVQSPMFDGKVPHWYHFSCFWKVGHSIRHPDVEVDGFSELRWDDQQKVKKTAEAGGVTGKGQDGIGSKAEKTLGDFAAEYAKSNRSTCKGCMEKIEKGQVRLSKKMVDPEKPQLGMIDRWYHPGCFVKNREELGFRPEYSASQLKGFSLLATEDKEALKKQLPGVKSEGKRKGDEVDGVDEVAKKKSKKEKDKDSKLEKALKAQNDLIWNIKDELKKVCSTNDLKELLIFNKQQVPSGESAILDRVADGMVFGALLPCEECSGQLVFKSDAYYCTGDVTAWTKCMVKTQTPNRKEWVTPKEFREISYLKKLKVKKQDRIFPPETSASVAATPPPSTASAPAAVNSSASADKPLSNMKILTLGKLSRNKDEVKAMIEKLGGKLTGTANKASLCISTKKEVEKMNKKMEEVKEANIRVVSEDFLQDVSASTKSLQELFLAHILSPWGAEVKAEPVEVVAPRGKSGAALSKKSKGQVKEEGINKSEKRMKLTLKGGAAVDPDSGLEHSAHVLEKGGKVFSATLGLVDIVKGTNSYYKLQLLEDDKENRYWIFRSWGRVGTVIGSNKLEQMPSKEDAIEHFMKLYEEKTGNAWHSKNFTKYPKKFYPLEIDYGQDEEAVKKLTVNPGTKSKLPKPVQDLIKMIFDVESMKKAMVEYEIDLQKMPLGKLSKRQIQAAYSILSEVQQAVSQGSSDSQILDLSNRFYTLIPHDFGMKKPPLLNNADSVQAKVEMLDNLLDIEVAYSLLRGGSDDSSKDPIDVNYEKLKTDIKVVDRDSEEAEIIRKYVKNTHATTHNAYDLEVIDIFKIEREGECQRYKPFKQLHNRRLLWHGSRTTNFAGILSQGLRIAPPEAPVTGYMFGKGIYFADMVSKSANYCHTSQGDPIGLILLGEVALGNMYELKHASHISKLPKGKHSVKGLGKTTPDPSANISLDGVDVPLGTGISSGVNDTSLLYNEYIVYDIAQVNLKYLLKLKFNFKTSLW

Columns and labels:
[1] = tested on: human immortalized keratinocytes HaCaT cells; assay: Protection of keratinocytes from UVB exposure (adenylate kinase release); details: FIG. 3
Protocol: (§1) In this third experiment, human immortalized keratinocytes HaCaT cells are assessed for the effect of ADP-ribose on UV-induced cell death and its probable mode of action. Here we report that ADP-ribose is able to protect skin cells from exposure to UVA, UVB, and their combination (sunlight).
(§2) The spontaneously immortalized human keratinocyte cell line HaCaT contains p53 mutation in both alleles. The cells are cultured in DMEM (Dulbeco's Minimal Essential Medium, Life Technologies) with 10% fetal bovine serum at 37° C. and 5% CO2. For irradiation, cells are cultured in 100 mm petri dishes to subconfluence (exponential growth), washed with 0.1% EDTA/PBS, and irradiated uncovered as a monolayer.
Treatment 1: 100 μg/ml ADP-R for exposures of 0, 1, 2, and 4 KJ/m^2 Kodacel filtered UV-B measured with UVB probe. Light source Westinghouse FS-20 bulbs.
(§3) Triplicate plates are harvested after 16 hours of incubation and supernatant pooled for adenylate kinase release activity.

[2] = target: poly (ADP-ribose) polymerase (PARP) (Homo sapiens, UniProt P09874); assay: PARP assay (in vitro PARP inhibition); format: biochemical; details: concentration ranging from 4 to 10 mM; FIG. 2
Protocol: 1. […] 2. Cover the plate with an adhesive plate sealer and incubate for 2 hours at room temperature (or overnight at 2-8° C.). 1. […] After the last wash, remove any remaining PBS by decanting. Invert the plate and blot it against clean paper toweling. Note, at this time plates can be air dried and stored covered at room temperature for later use. 2. Block the wells by adding 50 μL of Strep Diluent to each well. 3. Cover the plate with an adhesive plate sealer and incubate for 1 hour at room temperature (or overnight at 2-8° C.). […] PARP will autoribosylate in the presence of NAD. 1. […] After the last wash, remove any remaining PBS by decanting. Invert the plate and blot it against clean paper toweling. 2. […] 3. Add inhibitor of interest. The final reaction volume is 50 μL/well. […] Enzyme is added last. • For 24 wells: Make for 20=2×0.5 units=10 units • 20 wells×5 μL=100 μL 10 μL enzyme+90 μl of 1× PARP buffer […] 5. Incubate the plate for 30 minutes at room temperature. The extent of ribosylation is time dependant; therefore this step can be extended if desired. 1. […] After the last wash, remove any remaining PBS by decanting. Invert the plate and blot it against clean paper toweling. 2. Dilute Strep-HRP • Dilute 1:500 • For 20 wells=1,100 μL Strep diluent+2.2 μL Strep-HRP • Add 50 μL of diluted Strep-HRP to each well. 3. Incubate for 30 minutes at 37° C. […]

[3] = tested on: human immortalized keratinocytes HaCaT cells; assay: Protection of keratinocytes from UVA exposure (adenylate kinase release); details: 100 μg/ml; UVA at 300 KJ/m^2; FIG. 4
Protocol: as §1, §2
Treatment 2: 100 μg/ml ADP-R for exposures of 0, 30, 100 and 300 KJ/m^2 Kodacel filtered UV-A measured with UVA probe. Lightsource Cosmolux UVA bulbs.
as §3

[4] = tested on: human immortalized keratinocytes HaCaT cells; assay: Protection of keratinocytes from UVA+UVB (solar simulator) exposure (adenylate kinase release); details: 100 μg/ml, FIG. 5
Protocol: as §1, §2
Treatment 3: 100 μg/ml ADP-R for exposures of 0, 150, 450, 600 and 900 J/m^2 Kodacel filtered solar simulator light measured with a UVB probe. Light source LS1000-8R-AM/LS1000 solar simulator (Solar Light Company) with a 1 kW xenon lamp. This simulator exposure also provides 450, 1350, 1800, and 2700 J/m^2 UVA, respectively.
as §3

[5] = tested on: Human A549 cells; assay: H2O2 mediated cytotoxicity (cytoprotection assay, adenylate kinase release); details: 1 mM H2O2, FIG. 1

Substance: 5′-adenosine diphosphate ribose
- UVB exposure up to which keratinocytes are protected ([1]; 100 μg/ml): up to 2 KJ/m^2
- protection of cells (inhibition of cytotoxicity induced by UVB exposure) ([1]; 100 ug/ml, UVB): 40-60%
- inhibition of PARP activity [2]: 40-80%
- HaCaT cells protected from toxicity due to UVA exposure [3]: 25%
- inhibition of cytotoxicity, UVA+UVB (solar radiation) ([4]; 600 J/m^2 UVB+1800 J/m^2 UVA): 60-70%
- UVB exposure (solar simulator) up to which significant protection was observed ([4]; UVB, with 1800 J/m^2 UVA): ≤ 600 J/m^2
- protection from H2O2 cytotoxicity ([5]; 50 μg/ml): 55-60%
- cells protected from the cytotoxic effect of H2O2 ([5]; either 25 or 50 μg/ml): 30-55%
